Target: NEK7 (UniProt Q8TDX7)
Test: FLAG-M2 bead co-IP, NEK7 blot
Details: reference: FLAG-NLRP3 wild type; sites S198

binding against the reference: weaker
Substance: NLRP3 (from UniProt Q96P20) FLAG-NLRP3 S198A
